## Antibody variant affinities, Ab-14 heavy chain, assay 1

Target peptide (SARS-CoV-2 spike, HR2 region): PDVDLGDISGINAS

The variants keep the light chain, the linker and the frameworks of Ab-14 (scFv order VH, the linker GGGGSGGGGSGGGGS, VL).
VH: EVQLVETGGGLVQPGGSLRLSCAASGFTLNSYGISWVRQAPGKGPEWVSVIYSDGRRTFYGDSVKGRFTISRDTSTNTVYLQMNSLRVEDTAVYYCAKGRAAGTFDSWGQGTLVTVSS
VL: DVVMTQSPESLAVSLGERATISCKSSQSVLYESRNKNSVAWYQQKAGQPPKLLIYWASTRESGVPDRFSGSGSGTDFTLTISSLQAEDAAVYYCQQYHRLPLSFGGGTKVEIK

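The parent was found by panning a naive human phage display library on the peptide. In library AAYL49, one, two or three CDR residues were substituted; doubles and triples were drawn at random. The assay is AlphaSeq: two haploid yeast populations carry antibody and antigen on their surface. Binding brings cells together so that they mate, and sequencing counts the barcode pairs among the diploids. A regression on co-assayed BCL2-family reference pairs converts the normalised counts of each replicate to an apparent Kd. Each pool was mated in three replicate cultures.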

Substitutions are numbered in sequence along the VH above, starting at 1 (not Kabat).
Every variant below is changed at S35 of the VH (sequential numbering).
Numbers give log10(Kd / nM), so 0 is 1 nM and 3 is 1 µM. Smaller is tighter.
An entry "nd" has no value in the source: the pair was not observed among the diploids in that replicate. This suggests poor binding but is not conclusive.
For reference, the parent read 0.65 as the reference entry and 4.11 (one replicate of three) as a member of this library.

Variant G26V S35Y K65P showed nd, nd, nd (controls 1 of 9).
Variant L29H S35H I51G showed nd, nd, nd (controls 4 of 9).
Variant S35N F105M D106C showed nd, nd, nd (controls 1 of 9).
Variant S35Y R57M G103N showed nd, nd, nd (controls 1 of 9).
Variant S35D D54P V64T showed nd, nd, nd (controls 0 of 9).
Variant F27D S35K R56G showed nd, nd, nd (controls 0 of 9).
Variant S35E S63Y showed 3.62, nd, nd (controls 0 of 9).
Variant S35G F59L D106G showed nd, nd, nd (controls 4 of 9).
Variant S31E S35Y D54Q showed nd, 4.86, 5.67 (controls 0 of 9).
Variant S35I G103I T104R showed nd, nd, nd (controls 0 of 9).
Variant I34F S35V showed 3.70, nd, nd (controls 5 of 9).
Variant S35K showed 4.50, nd, nd (controls 1 of 9).
Variant S35W Y60P S63I showed nd, nd, nd (controls 1 of 9).
Variant S35K Y60D S107C showed nd, nd, nd (controls 0 of 9).
Variant S35Y S63M G99T showed nd, 5.12, nd (controls 5 of 9).
Variant S35C G55L showed nd, 3.48, nd (controls 0 of 9).
Variant S35M T58D showed nd, 3.17, nd (controls 0 of 9).
Variant G26L S35I V50M showed nd, nd, nd (controls 0 of 9).
Variant S35G I51C G55H showed nd, nd, nd (controls 1 of 9).
Variant N30E S35T R56H showed nd, nd, nd (controls 2 of 9).
Variant S35Y D54I R57V showed nd, nd, nd (controls 0 of 9).
Variant S35E V50N K65F showed nd, nd, nd (controls 0 of 9).
Variant S31T S35M R57G showed nd, nd, nd (controls 2 of 9).
Variant S35C K65T G99I showed nd, nd, nd (controls 1 of 9).
Variant S35C T58S S63V showed nd, 4.10, nd (controls 2 of 9).
Variant F27M S35V R57L showed nd, nd, nd (controls 0 of 9).
Variant S35V V64E R100W showed nd, nd, nd (controls 0 of 9).
Variant S35W R57F D62R showed nd, nd, nd (controls 1 of 9).
Variant T28S S35W F59V showed nd, nd, nd (controls 0 of 9).
Variant T28Y S35V G103W showed nd, nd, nd (controls 0 of 9).
Variant S35P A101L G103E showed 5.58, 4.21, nd (controls 5 of 9).
Variant L29G Y32A S35V showed nd, 3.56, nd (controls 0 of 9).
Variant L29Q S35N V50C showed nd, 3.96, nd (controls 0 of 9).
Variant Y32P S35V F105Y showed nd, nd, nd (controls 1 of 9).
Variant S35W S107T showed 4.18, nd, nd (controls 2 of 9).
Variant L29Y S35D showed nd, nd, nd (controls 0 of 9).
Variant S35F K65L D106A showed nd, nd, nd (controls 1 of 9).
Variant N30D I34M S35E showed nd, 3.31, nd (controls 2 of 9).
Variant S35F D106H showed nd, nd, 4.18 (controls 1 of 9).
Variant S35F R56N F105E showed nd, nd, nd (controls 1 of 9).
Variant Y32K S35F G55E showed nd, nd, nd (controls 0 of 9).
Variant S35N F59P showed nd, 4.28, 4.07 (controls 1 of 9).
Variant T28F S35A T104I showed nd, nd, nd (controls 0 of 9).
Variant S35M R56I S107N showed 3.41, nd, 4.55 (controls 1 of 9).
Variant G33C S35W A101Y showed nd, nd, 4.56 (controls 1 of 9).

Background: pairings of library AAYL49 with three empty control strains gave a value in 15% of cases (median 4.06, 5th percentile 2.83). Values in that range, when seen in few replicates, are hard to tell from nonspecific mating. Also given: how often the same scFv was detected with the empty control strains.

From the AlphaSeq antibody data of Engelhart et al. 2022 (doi:10.1038/s41597-022-01779-4), copy in the FLAb collection.